# Measured values as given in article PMC11061834 (Journal of Natural Products, 2024).
# System: 3T3-L1 cells
# Assay: Antiadipogenic activity: inhibition of lipid accumulation by Nile Red staining
# Format: cell-based
# Conditions: 5 μM; P < 0.001
row,SMILES,antiadipogenic activity compared with lovastatin
1,"C=C(c1ccc(O)c(Oc2cc3c(cc2OC)CCN(C)[C@@H]3Cc2ccc(OC)cc2)c1)[C@H]1c2cc(OC)c(OC)cc2CCN1C [Compound 3, 1R,1′S-neoneferine A]",significantly higher
2,"C=C(c1ccc(O)c(Oc2cc3c(cc2OC)CCN(C)[C@@H]3Cc2ccc(OC)cc2)c1)[C@H]1c2cc(O)c(OC)cc2CCN1C [Compound 5, 1R,1′S-neoisoliensinine A]",significantly higher
3,"COc1ccc(C[C@@H]2c3cc(Oc4cc(C[C@H]5c6cc(OC)c(OC)cc6CCN5C)ccc4O)c(OC)cc3CCN2C)cc1 [Compound 8, 1′-epi-neferine]",significantly higher
